Source: patent US7666446B2, “Oral formulation for delivery of poorly absorbed drugs” (ProCarrier, Inc., priority 2004, dated 2010)

Assay: Plasma catechin after intraduodenal catechin/PEP (HPLC)
Format: in vivo
Conditions: rats, 300 mg/kg catechin
Procedure: The abdominal muscle was sutured under the skin. […] Four rats were in each treatment group. […]
Catechin solution was mixed with a solution of methylcellulose, and this mixture was added to solutions of glucosamine and sucrose palmitate in water before administration to rats. […] The contents of catechin/PEP comprised and individual dosage of 300 mg/kg catechin, 400 mg/kg sucrose palmitate, glucosamine in a 1:4 mole ratio of catechin to glucosamine, and methylcellulose in a 1:0.5 mole ratio of catechin to methylcellulose. […] Plasma was analyzed by HPLC, and bioavailability was calculated.

Catechin [Catechin control]
Concentration (catechin in plasma) (0 min): 1170 ng/mL
Concentration (catechin in plasma) (15 min): 4480 ng/mL
Concentration (catechin in plasma) (30 min): 7830 ng/mL
Concentration (catechin in plasma) (60 min): 10720 ng/mL
Concentration (catechin in plasma) (90 min): 14600 ng/mL
Concentration (catechin in plasma) (120 min): 17530 ng/mL
Concentration (catechin in plasma) (180 min): 18740 ng/mL
